Data from patent US8273762B2, “Hexahydro-pyrrolo-isoquinoline compounds” (Janssen Pharmaceutica NV, priority 2005, dated 2012).

By UniProt entry, the sequences of proteins in these tests, tags left out.
UniProt P31652, whole entry: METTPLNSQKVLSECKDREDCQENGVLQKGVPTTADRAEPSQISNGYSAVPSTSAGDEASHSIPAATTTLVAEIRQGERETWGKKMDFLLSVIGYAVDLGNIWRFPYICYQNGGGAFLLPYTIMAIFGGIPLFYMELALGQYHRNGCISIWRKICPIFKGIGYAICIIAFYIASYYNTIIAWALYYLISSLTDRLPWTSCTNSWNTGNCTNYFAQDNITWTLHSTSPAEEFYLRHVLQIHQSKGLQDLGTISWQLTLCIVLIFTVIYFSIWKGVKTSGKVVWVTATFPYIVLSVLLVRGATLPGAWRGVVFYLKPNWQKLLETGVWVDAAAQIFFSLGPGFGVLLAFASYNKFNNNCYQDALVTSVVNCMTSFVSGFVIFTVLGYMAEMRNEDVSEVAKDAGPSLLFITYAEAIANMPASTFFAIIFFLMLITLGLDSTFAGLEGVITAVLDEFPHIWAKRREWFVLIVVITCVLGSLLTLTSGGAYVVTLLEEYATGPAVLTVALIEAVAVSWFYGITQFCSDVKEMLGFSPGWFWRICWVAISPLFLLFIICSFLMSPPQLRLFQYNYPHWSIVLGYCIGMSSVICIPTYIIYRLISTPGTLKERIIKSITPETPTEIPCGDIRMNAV

How the values were obtained:
Rat SERT = molecular target: T1, Rat SERT (Rattus norvegicus, UniProt P31652); assay: Rat brain SERT binding ([3H]-Citalopram displacement)
T1 construct: A rat brain without cerebellum (Zivic Laboratories, Inc.—Pittsburgh, Pa.) was homogenized; tissue Zivic Laboratories, Inc; host or cells: rat brain without cerebellum, membranes

H3 receptor = details: Imetit (1 mg/kg) i.p. alone, drinking measured for 60 min, average ± s.e.m.

Structure (SMILES) | Ki (Rat SERT) [nM] | Water Consumed (H3 receptor) [mL]
c1ccc([C@H]2CN3CCC[C@H]3c3cc(OCCCN4CCCCC4)ccc32)nc1 (relative stereo) [Example 25] | 3 | 
c1cc([C@@H]2CN3CCC[C@H]3c3cc(OCCCN4CCCCC4)ccc32)ccn1 (relative stereo) [Example 27A, Cis-9-(3-Piperidin-1-yl-propoxy)-6-pyridin-4-yl-1,2,3,5,6,10b-hexahydro-pyrrolo[2,1-a]isoquinoline] | 20 | 
c1cc([C@H]2CN3CCC[C@H]3c3cc(OCCCN4CCCCC4)ccc32)ccn1 (relative stereo) [Example 27B, Trans-9-(3-Piperidin-1-yl-propoxy)-6-pyridin-4-yl-1,2,3,5,6,10b-hexahydro-pyrrolo[2,1-a]isoquinoline] | 26 | 
N=C(N)SCCc1cnc[nH]1 [Imetit, imetit, reference compound] |  | 2.53 ± 0.60
